Experimental data taken from patent publication US20260124293A1 (priority 2022, published 2026).

System: WT SARS-CoV-2 or OTS4-5-7-8 in VeroE6/TMPRSS2 cells
Assay type: cell-based

SMILES: O=c1[nH]cc(F)c(=O)[nH]1 [5-Fluorouracil]
- number of infectious virus particles in a TCID50 virus assay on adding a mutagen: reduced the number of infectious virus particles
